In patent publication EP4703362A1 (Chengdu Sibeibo Pharmaceutical Technology Co., Ltd, priority 2023, dated 2024):
Where two headings read alike, the source gives them in different places.

Columns and labels:
[1] = biological target: T1, CGRP receptor complex (Homo sapiens, UniProt O60894+Q16602); assay: determination of cell functional antagonism - cAMP determination; type: cell-based; conditions: for IC50 values / inhibitory activities (in words): inhibition of CGRP-stimulated cAMP formation, statement of the conclusion
T1 construct: host or cells: SK-N-MC
Procedure: 1.Experimental principle A CGRP receptor complex was coupled with Gs in G protein, the combination of CGRP and CGRP receptor complex led to Gs activation, and cAMP (3',5'-cyclic adenosine monophosphate) was produced. 2.Experimental purpose The ability of the compound of the present invention to inhibit CGRP-stimulated cAMP formation in SK-N-MC cells was determined. 3.Experimental materials 3.1Experimental cell line: SK-N-MC (neuroepithelioma cells) from National Science and Technology Infrastructure - Biomedical Materials and Cell Resources. 3.2Reagents and consumables
4.Experimental steps • 4.1Cell preparation: The SK-N-MC cells were resuscitated and cultured in advance, and a cell confluence degree should be 70%-80% before use. • 4.2A sample dilution, a tested compound and α-CGRP (human) were prepared. • 4.3Cell seeding and drug effect: The SK-N-MC cells were digested, centrifuged, then resuspended with the sample dilution, and inoculated into a 384-well plate. Each well was added with the α-CGRP (human) and the tested compound respectively, and blown and mixed evenly. The well plate was adhered with a sealing film, and placed on an enzyme-labeled incubator to incubate at 25°C. • 4.4cAMP determination: carried out according to LANCE Ultra cAMP Kit specification Eu-cAMP tracer and ULight-anti-cAMP working solutions were prepared in the dark, respectively added into the well plate, and blown and mixed evenly.

[2] = biological target: T2, CGRP receptor (Homo sapiens, UniProt O60894+Q16602); assay: Competitive binding determination of in-vitro [125I] CGRP; conditions: competition with 125I-CGRP (Human) 200 pM, SK-N-MC cell membrane
T2 construct: A tissue homogenate of SK-N-MC cell membrane was used as a receptor source; host or cells: SK-N-MC (membrane preparation)
Procedure: The ability of the compound to compete for a radiolabelled endogenous peptide human αCGRP ([^125I] CGRP) was determined.
The SK-N-MC cells endogenously expressed a CGRP receptor with the same sequence as the human CGRP receptor. A tissue homogenate of SK-N-MC cell membrane was used as a receptor source, and the radiolabelled endogenous peptide human αCGRP ([^125I] CGRP) and the compound competitively bound with the receptor source. After washing the unbound part of [^125I] CGRP, the binding of the reaction compound on the receptor could be detected by a radioactive signal.
3.1 Experimental cell line: SK-N-MC (human neuroepithelioma cells) from Cell Resource Center, Peking Union Medical College 3.2 Detection equipment: MicroBeta2 (PerkinElmer), and […]-96 well cell collector (PerkinElmer, C961961) 3.3 Experimental reagents and consumables
3.4 Experimental steps • 3.4.1 Extraction and quantification of membrane protein: fresh SK-N-MC cells were collected. The cell pellet was resuspended with an experimental buffer (Tris-HCl 50 mM, pH 7.4). The cells were homogenized 10 times by a homogenizer, and centrifuged at 1000 g and 4°C for 10 minutes, then nuclear/mitochondrial fragments were removed, and a supernatant tissue homogenate was collected. The supernatant was centrifuged at 50000 g and 4°C for 1 hour, and then a supernatant was removed. Particles were suspended with an appropriate buffer, and after determing the protein concentration, the suspension was packaged and then stored at -80°C. • 3.4.2 Determination of binding Ki (inhibition constant) of compound: 1 µL of continuously diluted tested compound was transferred to an assay plate. […] Each well was added with 50 µL of 0.3% PEI to soak the mixture for 1 hour. The reaction mixture was filtered by a […]-96 well cell collector, and the plate was washed with a pre-cooled buffer. […] A ^3H signal was captured by a MicroBeta2 Reader counting filter. • 3.4.3 Data analysis
Data were analyzed by Prism 5.

[3] = inhibition of CGRP-stimulated cAMP formation in SK-N-MC cells
[4] = inhibition of CGRP-stimulated cAMP formation in SK-N-MC cells, read-out: IC50

Row | SMILES | IC50 [1, 3] [nM] | Ki [2] [nM] | IC50 [1, 4] [nM] | further results
1 | Cc1cc(C[C@@H](NC(=O)N2CCC(c3cc4c([nH]c3=O)SCCC4)CC2)C(=O)N2CCN(C3CCN(C)CC3)CC2)cc2cn[nH]c12 [Example 6, (R)-N-(3-(7-methyl-1H-indazole-5-yl)-1-(4-(1-methylpiperidine-4-yl)piperazine-1-yl)-1-oxopropan-2-yl)-4-(7-oxo-3,4,7,8-tetrahydro-2H-thiopyrano[2,3-b]pyridine-6-yl)piperidine-1-for mamide] | 0.21 | 0.0195 |  | 
2 | Cc1cc(C[C@@H](NC(=O)N2CCC(c3cc4c([nH]c3=O)SCC4)CC2)C(=O)N2CCN(C3CCN(C)CC3)CC2)cc2cn[nH]c12 [Example 8, (R)-N-(3-(7-methyl-1H-indazole-5-yl)-1-(4-(1-methylpiperidine-4-yl)piperazine-1-yl)-1-oxopropan-2-yl)-4-(6-oxo-2,3,6,7-tetrahydrothieno[2,3-b]pyridine-5-yl)piperidine-1-formamide] |  | 0.0116 | 0.41 | IC50 values / inhibitory activities (in words) [1]: pM level
3 | Cc1cc(C[C@@H](NC(=O)N2CCC(c3cc4c([nH]c3=O)[S+]([O-])CC4(C)C)CC2)C(=O)N2CCN(C3CCN(C)CC3)CC2)cc2cn[nH]c12 (stereo partly drawn) [Example 9, 4-(3,3-dimethyl-1-oxidation-6-oxo-2,3,6,7-tetrahydrothieno[2,3-b]pyridine-5-yl)-N-((R)-3-(7-methyl-1H-indazole-5-yl)-1-(4-(1-methylpiperidine-4-yl)piperazine-1-yl)-1-oxopropan-2-yl)piperidine-1-formamide] |  |  |  | IC50 [1]: 0.86 nM; IC50 values / inhibitory activities (in words) [1]: pM level
4 | [2H]C([2H])([2H])N1CCC(N2CCN(C(=O)[C@@H](Cc3cc(C)c4[nH]ncc4c3)NC(=O)N3CCC(c4cc5c([nH]c4=O)SCCC5)CC3)CC2)CC1 [Example 30, (R)-N-(3-(7-methyl-1H-indazole-5-yl)-1-(4-(1-(methyl-d3)piperidine-4-yl)piperazine-1-yl)-1-oxopropan-2-yl)-4-(7-oxo-3,4,7,8-tetrahydro-2H-thiopyrano[2,3-b]pyridine-6-yl)piperidine-1-formamide] |  | 0.0166 | 0.19 | 
5 | [2H]c1n[nH]c2c(C)cc(C[C@@H](NC(=O)N3CCC(c4cc5c([nH]c4=O)SCCC5)CC3)C(=O)N3CCN(C4CCN(C)CC4)CC3)cc12 [Example 37, (R)-N-(3-(7-methyl-1H-indazole-5-yl-3-d)-1-(4-(1-methylpiperidine-4-yl)piperazine-1-yl)-1-oxopropan-2-yl)-4-(7-oxo-3,4,7,8-tetrahydro-2H-thiopyrano[2,3-b]pyridine-6-yl)piperidine-1-formamide] | 0.15 |  |  | 
6 | [2H]c1n[nH]c2c(C)cc(C[C@@H](NC(=O)N3CCC(c4cc5c([nH]c4=O)SCCC5)CC3)C(=O)N3CCN(C4CCN(C([2H])([2H])[2H])CC4)CC3)cc12 [Example 38, (R)-N-(3-(7-methyl-1H-indazole-5-yl-3-d)-1-(4-(1-(methyl-d3)piperidine-4-yl)piperazine-1-yl)-1-oxopropan-2-yl)-4-(7-oxo-3,4,7,8-tetrahydro-2H-thiopyrano[2,3-b]pyridine-6-yl)piperidine-1-formamide] |  |  | 0.07 | 
7 | [2H]c1n[nH]c2c(C)cc(C[C@@H](NC(=O)N3CCC(c4cc5c([nH]c4=O)SCC5)CC3)C(=O)N3CCN(C4CCN(C([2H])([2H])[2H])CC4)CC3)cc12 [Example 43, (R)-N-(3-(7-methyl-1H-indazole-5-yl-3-d)-1-(4-(1-(methyl-d3)piperidine-4-yl)piperazine-1-yl)-1-oxopropan-2-yl)-4-(6-oxo-2,3,6,7-tetrahydrothieno[2,3-b]pyridine-5-yl)piperidine-1-for mamide] | 0.1 |  |  | 
8 | [2H]c1n[nH]c2c(C)cc(C[C@@H](NC(=O)N3CCC(c4cc5c([nH]c4=O)SCC5)CC3)C(=O)N3CCN(C4CCN(C)CC4)CC3)cc12 [Example 44, (R)-N-(3-(7-methyl-1H-indazole-5-yl-3-d)-1-(4-(1-methylpiperidine-4-yl)piperazine-1-yl)-1-oxopropan-2-yl)-4-(6-oxo-2,3,6,7-tetrahydrothieno[2,3-b]pyridine-5-yl)piperidine-1-formamide] | 0.06 |  |  | 
